Source: patent US20240009173A1, “Use of 5-HT3-Targeting Drugs for Treatment of Acute Kidney Injury” (priority 2020, published 2024)

Legend:
patients with AKI [1] = details: human, in vivo
all ICU patients = test system: all ICU patients; set-up: key: Y has clinical trials and/or literature support; N has no clinical trials and/or literature support; details: cited from earlier work
patients with AKI [2] = test system: patients with AKI; set-up: species or system human; details: in vivo
ICU patients with AKI = test system: ICU patients with AKI; set-up: key: Y has clinical trials and/or literature support; N has no clinical trials and/or literature support; details: cited from earlier work
patients with AKI [3] = details: human, in vivo; remark: listed apart in the source

Structure (SMILES): CN1CC[C@]23c4c5ccc(O)c4O[C@H]2C(=O)CC[C@H]3[C@H]1C5 [Hydromorphone]
- Death rate in MIMIC III database (patients with AKI [1]): 166.18 per 1,000 patients
- Reported for protecting effect in all ICU patients (all ICU patients): N
- Coefficient (patients with AKI [2]): −0.024
- Reported for protecting effect in ICU patients with AKI (ICU patients with AKI): N
- Death rate in eICU database (patients with AKI [3]): 141.20 per 1,000 patients
